Structures are written as SMILES. Read-outs that look alike come from different tables or passages of the source.

Sequences of proteins named here, by UniProt entry; tags and fusion partners are left off. A change or cut given only in a name is not applied to a line headed by its entry.
UniProt Q27783: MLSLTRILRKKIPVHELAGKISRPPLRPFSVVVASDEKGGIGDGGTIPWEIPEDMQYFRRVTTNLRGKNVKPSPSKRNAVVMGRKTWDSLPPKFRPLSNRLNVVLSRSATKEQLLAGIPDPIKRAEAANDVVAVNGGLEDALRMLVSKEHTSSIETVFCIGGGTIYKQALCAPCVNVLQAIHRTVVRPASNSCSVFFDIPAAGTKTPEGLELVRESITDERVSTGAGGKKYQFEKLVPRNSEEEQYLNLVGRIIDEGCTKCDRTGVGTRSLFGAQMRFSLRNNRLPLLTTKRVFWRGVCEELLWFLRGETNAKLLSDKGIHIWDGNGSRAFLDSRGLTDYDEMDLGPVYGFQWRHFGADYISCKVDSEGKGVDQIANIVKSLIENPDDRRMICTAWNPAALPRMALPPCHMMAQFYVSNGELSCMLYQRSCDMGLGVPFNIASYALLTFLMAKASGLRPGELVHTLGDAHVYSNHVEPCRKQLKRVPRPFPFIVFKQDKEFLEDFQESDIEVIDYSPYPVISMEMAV

One may read the Ki as a dissociation constant, usually derived from enzyme kinetics or from competition with a known ligand. By IC50 is commonly meant the concentration that inhibits the measured activity by half.

One assay deals with TbDHFR-TS (Trypanosoma brucei brucei, UniProt Q27783). Details: His tag; made in house; host or cells: E. coli. The note with it: cited from earlier work.
In a further assay the target is T1, TbPTR1 (Trypanosoma brucei brucei, UniProt O76290).
T1 sequence (O76290 1-268): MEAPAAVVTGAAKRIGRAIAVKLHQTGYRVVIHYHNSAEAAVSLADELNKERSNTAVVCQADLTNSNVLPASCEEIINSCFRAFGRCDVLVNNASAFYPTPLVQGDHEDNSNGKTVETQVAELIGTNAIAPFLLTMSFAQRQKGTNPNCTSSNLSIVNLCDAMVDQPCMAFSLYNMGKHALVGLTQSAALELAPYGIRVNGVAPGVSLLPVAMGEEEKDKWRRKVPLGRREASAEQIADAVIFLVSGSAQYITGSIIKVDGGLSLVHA
The note with it: read-out: IC50 TbPTR1; recombinant enzyme.

The mark [1] stands for this setting: Ki printed in the IC50 column, read-out: TbDHFR-TS Ki.

Consider `CC1(C)N=C(N)N=C(N)N1c1ccc(Cl)cc1` [CYC, cycloguanil, reference compound], for which the Ki on TbDHFR-TS (setting [1]) was 0.256 µM.

With `CCc1nc(N)nc(N)c1-c1ccc(Cl)cc1` [PYR, pyrimethamine], the IC50 at TbPTR1 is 0.09 µM. In addition, the values for the Ki on TbDHFR-TS (setting [1]) and on TbDHFR-TS (read-out: TbDHFR inhibition constant (Ki)) were 0.024 µM and 0.0242 µM, respectively.

Values taken from article PMC8308740 (Pharmaceuticals, 2021).
